Some of the results follow.
The molecules below were run on A. baumannii ATCC 17978 (assay: relative growth (fraction of control); higher = less inhibition). Settings: 50 µM.

SMILES	relative growth
COc1cccc(S(=O)(=O)N[C@H]2C=C[C@@H](CC(=O)NC3CCC3)O[C@H]2CO)c1	1.03
C[C@@H]1Cn2nncc2CO1	1.1
C=CC[C@H](CC(=O)N(CCO)Cc1ccccc1)C(=O)NCCOC(=O)[C@H](CC=C)CC(=O)OC(C)(C)C	0.731
Cn1c(=O)oc2cc(S(=O)(=O)N3CCC[C@H](C(=O)NN4CCOCC4)C3)ccc21	1.11
CCOC(=O)Nc1ccc(NCc2ccc(F)cc2)nc1N.O=C(O)/C=C\C(=O)O	1.12
COc1ccc(C[C@H](N)C(=O)N[C@@H]2[C@@H](CO)OC(n3cnc4c(N(C)C)ncnc43)[C@@H]2O)cc1.Cl.Cl (some centres undefined)	0.412
CCCCN1CCCCC1C(=O)Nc1c(C)cccc1C.Cl (centres undefined)	1.13
Cc1[nH]c(SCCC(=O)O)nc(=O)c1C	0.898
CN1CCN(C(=O)C[C@H]2CC[C@H]3[C@@H](COC[C@@H](O)CN3Cc3ccc4c(c3)OCO4)O2)CC1	1.04
C[C@H](CO)N1C[C@H](C)[C@H](CN(C)Cc2ccccc2F)Oc2cc(C#CC3CC3)ccc2S1(=O)=O	1.03
O=C(C[C@@H]1CC[C@H]2[C@@H](COC[C@@H](O)CN2C(=O)Nc2cc(Cl)cc(Cl)c2)O1)N1CCOCC1	1.1
C[C@@H]1CN([C@@H](C)CO)S(=O)(=O)c2ccc(C#Cc3ccncc3)cc2O[C@H]1CN(C)C(=O)c1ccncc1	1.08
C[C@@H]1CN(c2c(F)c(F)c3c(=O)c(C(=O)O)cn(C4CC4)c3c2F)C[C@H](C)N1	0.142
C[C@@H]1CN([C@@H](C)CO)S(=O)(=O)c2ccc(-c3cccnc3)cc2O[C@H]1CN(C)C(=O)NC1CCCCC1	0.927
Cc1c(/C=N/O)sc2ccccc12	0.727
CCCNC(=O)N1C[C@@H](O)COC[C@@H]2O[C@H](CC(=O)NCc3ccncn3)CC[C@H]21	0.833
CC[C@]12CCCN3CCc4c(n(c5ccccc45)[C@@](O)(C(=O)OC)C1)[C@@H]32	0.933
CCSc1nnc2c(=O)[nH]c(=O)[nH]c2n1	0.886
COc1ccc(CCNC(=O)[C@@H]2c3ccccc3C(=O)N(CC34CC5CC(CC(C5)C3)C4)[C@H]2c2ccc(CO)cc2)cc1	1.15
CC(C)CC#Cc1ccc2c(c1)O[C@H](CN(C)C(=O)Cc1cccnc1)[C@@H](C)CN([C@@H](C)CO)S2(=O)=O	0.917
COC(=O)Cn1c(Cl)nc2c1c(=O)n(C)c(=O)n2C	0.936
Cc1[nH]c2ncnn2c(=O)c1NS(C)(=O)=O	0.978
O/N=C/c1c(Cl)cccc1Cl	0.995

SMILES	relative growth
COc1ccnc(CS(=O)c2nc3cc(OC(F)F)ccc3[nH]2)c1OC (centres undefined)	1.11
O=c1c(O)c(-c2ccccc2)oc2cc(O)cc(O)c12	1.03
COc1ccc(-c2coc3cc(O)cc(OC)c3c2=O)cc1	1.03
CC(=O)NCc1nnnn1-c1ccc(C)cc1	1.02
Nc1no[n+]([O-])c1-c1ccccc1	0.917
C[C@@H](CCO)Nc1nc2c([nH]1)c(=O)n(C)c(=O)n2C	0.937
C[C@H](CO)N1C[C@H](C)[C@H](CN(C)C(=O)c2ccccn2)Oc2cc(C#Cc3ccccc3)ccc2S1(=O)=O	0.887
O=C(C[C@H]1CC[C@@H]2[C@H](COC[C@H](O)CN2C(=O)c2ccc(F)cc2)O1)NCCCN1CCOCC1	0.915
c1cn(-c2ccc(-n3ccnc3)nn2)cn1	1.02
C=CCc1ccc(O[C@@H]2O[C@H](CO[C@@H]3O[C@@H](C)[C@H](O)[C@@H](O)[C@H]3O)[C@@H](O)[C@H](O)[C@H]2O)c(O)c1	0.992
CC(=O)N(C)C[C@@H]1Oc2cc(C#CCN(C)C)ccc2S(=O)(=O)N([C@@H](C)CO)C[C@H]1C	0.907
C[C@H]1CN([C@@H](C)CO)C(=O)Cc2cc(NC(=O)Nc3cc(Cl)cc(Cl)c3)ccc2O[C@H]1CN(C)S(=O)(=O)c1ccc(Oc2ccccc2)cc1	0.918
Cc1ccccc1NCC(=O)NN	0.95
CCOC(=O)c1cn2cn[nH]c2nc1=O	0.947
CCCCOc1ccc(CC(=O)NO)cc1	1.09
O=C(C[C@H]1C=C[C@H](NC(=O)CN2CCOCC2)[C@@H](CO)O1)NC1CCC1	1.03
CC(C)CNC(=O)C(=O)NC[C@H]1OCCN1S(=O)(=O)c1ccc2c(c1)OCCO2	1.01
CN(C)Cc1cn(CC[C@@H]2CC[C@H](N)[C@H](CO)O2)nn1	1.01
NC[C@H]1CC[C@H](C(=O)O)CC1	0.93
Oc1c(Cl)cc(Cl)cc1Sc1cc(Cl)cc(Cl)c1O	0.243
COc1ccc(-c2cnc3c(c2)C(=O)N([C@@H](C)CO)C[C@@H](C)[C@@H](CN(C)C(=O)Cc2cccnc2)O3)cc1	1.06
COc1ccc(NC(=O)[C@H]2[C@@H](c3ccc(C)cc3)CC(=O)N2C(=O)OCc2ccccc2)c2ncccc12	1.04
NCC[C@@H](O)C(=O)N[C@@H]1C[C@H](N)[C@@H](O[C@H]2O[C@H](CN)[C@@H](O)[C@H](O)[C@H]2O)[C@H](O)[C@H]1O[C@H]1O[C@H](CO)[C@@H](O)[C@H](N)C1O.O (some centres undefined)	0.16

SMILES	relative growth
O=C1CCOCCN1	0.981
c1cncc(-c2nc3ccc4ccccc4c3c3c2CCCC3)c1	0.812
CCC(=O)n1ccc(C(=O)N2CCOCC2)n1	1.09
C[C@@H]1CN([C@H](C)CO)C(=O)CCCn2cc(nn2)CO[C@H]1CN(C)C(=O)Nc1ccnc(N2CCOCC2)c1	0.974
CO[C@H]1CN(C)C(=O)c2ccc(NS(C)(=O)=O)cc2OC[C@@H](C)N(C(=O)CN(C)C)C[C@H]1C	1.02
CCOC(=O)C(C#N)C1=NCCC1 (centres undefined)	1.07
O=C(C[C@@H]1CC[C@@H]2[C@H](COC[C@@H](O)CN2C(=O)Nc2cccc(F)c2)O1)NCCCN1CCOCC1	0.85
Cc1scc2c1N(C(=O)CN1CCN(C)CC1)c1ccccc1NC2=O.Cl	0.386
O=C(N[C@H]1CC[C@H](CCNS(=O)(=O)c2ccccc2)O[C@@H]1CO)c1cnccn1	0.86
Cl.O=C(COc1ccc(Cl)cc1)N1CCN(Cc2ccc3c(c2)OCO3)CC1	0.877
C[C@@H]1CN([C@H](C)CO)S(=O)(=O)c2ccc(-c3ccccc3F)cc2O[C@H]1CN(C)S(C)(=O)=O	0.838
Nc1cccn2ncnc12	0.948
C=CC(C1=CC(=O)C(OC)=CC1=O)c1ccc(O)cc1 (centres undefined)	1.08
CC(C)c1c(C(=O)c2ccccc2)c(-c2ccccc2)c(-c2ccc(F)cc2)n1CC[C@@H](O)C[C@@H](O)CC(=O)O	0.849
CO[C@H]1CN(C)C(=O)c2cc(NS(=O)(=O)CC(F)(F)F)ccc2OC[C@H](C)N(C(=O)c2ccc3c(c2)OCO3)C[C@H]1C	1.02
O=C(C[C@H]1CC[C@H]2[C@@H](COC[C@H](O)CN2C(=O)Nc2cccc(F)c2)O1)NCCCN1CCOCC1	0.98
CN(C)CC(=O)N[C@H]1CC[C@@H](CCNC(=O)C2CCC2)O[C@H]1CO	0.965
O=C(O)/C=C/C=C/c1ccc2c(c1)OCO2	1.11
NC(=O)NCC#Cc1ccc2c(c1)[C@]1(C(=O)N2)[C@H](C(=O)N2CCCCCCC2)[C@H]2C(=O)O[C@H](c3ccccc3)[C@H](c3ccccc3)N2[C@@H]1c1ccc(O)cc1	1.05
C(=C\c1ccncc1)/c1ccncc1	0.88
O=C(/C=C/c1ccc(O)cc1)c1ccccc1	0.864
COc1ccccc1S(=O)(=O)N[C@H]1C=C[C@H](CC(=O)N2CCN(C)CC2)O[C@@H]1CO	1.04
Cc1cccc(N2C[C@@H](CN)OC2=O)c1	0.982

SMILES	relative growth
O=C(N[C@H]1CC[C@@H](CCNS(=O)(=O)c2ccccc2)O[C@@H]1CO)c1cnccn1	1.07
Cc1ccccc1S(=O)(=O)N1C[C@@H](O)COC[C@H]2O[C@H](CC(=O)N3CCN(C)CC3)CC[C@@H]21	1.13
CCOc1ccc(Cc2cc([C@@H]3O[C@H](CO)[C@@H](O)[C@H](O)[C@H]3O)ccc2Cl)cc1	1.03
COc1ccc(CN(CCN(C)C)c2ncccn2)cc1.Cl	0.932
COCCOC(=O)N1C(=O)[C@@]2(c3cc(C#Cc4ccc(OC)cc4)ccc31)[C@H](c1ccccc1OCCO)N1[C@H](c3ccccc3)[C@H](c3ccccc3)OC(=O)[C@H]1[C@@H]2C(=O)NC[C@H](O)c1ccccc1	1.17
CCCNC(=O)C[C@H]1CC[C@H]2[C@@H](COC[C@@H](O)CN2S(=O)(=O)c2ccc(Oc3ccccc3)cc2)O1	1.05
Oc1cc(O)c2c(c1)O[C@H](c1cc(O)c(O)c(O)c1)[C@H](O)[C@H]2c1c(O)cc(O)c2c1O[C@H](c1cc(O)c(O)c(O)c1)[C@H](O)[C@H]2c1c(O)cc(O)c2c1O[C@H](c1cc(O)c(O)c(O)c1)[C@H](O)C2	1
C[C@@H]1CN([C@H](C)CO)C(=O)c2cc(-c3ccc(C(=O)N(C)C)cc3)cnc2O[C@H]1CN(C)C(=O)CN(C)C	0.946
N#CCN(CC#N)C(=O)c1ccco1	0.862
CC(C)N1C[C@@H](CO)CC1=O	1.02
O=C(C[C@@H]1CC=CCCC(=O)OC[C@H](Cc2c[nH]c3ccccc23)NC1=O)N[C@@H](CO)Cc1ccccc1	1.02
C(=N\c1ccc2ccccc2c1)/Nc1ccc2ccccc2c1	0.271
C=C(C)C1CC=C(C)CC1 (centres undefined)	1.01
Cc1ccc(/C=c2\sc3ncnn3c2=O)o1	1.08
CCn1[nH]c(N)c2c(=O)[nH]c(=O)cc1-2	0.889
c1nc(N2CCOCC2)nc(N2CCOCC2)n1	0.999
Cn1c(S(=O)(=O)CC(N)=O)nc2ccccc21	1.16
Cn1c(=O)c2cc(S(=O)(=O)NCCC(=O)NC3CCCC3)ccc2n(C)c1=O	1.04
O=S(=O)(NCC[C@H]1CC[C@@H](NS(=O)(=O)c2ccccc2Cl)[C@@H](CO)O1)c1ccc(Cl)cc1	0.911
CC(=O)[C@H]1CC[C@H]2[C@@H]3CC=C4C[C@@H](OC(=O)CCC(=O)O)CC[C@]4(C)[C@H]3CC[C@]12C	1.24
